# From article PMC4358366, “Identification of ‘erasers’ for lysine crotonylated histone marks using a chemical proteomics approach” (eLife, 2014)
# Key:
# [1] = system: Sirt6; assay: Hydrolysis of H3K4Cr by Sirt6, LC-MS; type: biochemical, human; settings: Sirt6 5 μM, 500 μM peptide, 1 mM NAD, pH 7.5, 37 °C, 2 hr
# Method: (§1) Plasmids of Sirt1 (193–747), Sirt2 (36–356), Sirt5 (34–302), and Sirt6 (1–314) for Escherichia coli expression were generated as previously described ([Finnin et al., 2001]; [Du et al., 2011]; [Hubbard et al., 2013]; [Jiang et al., 2013]). […] Sirt3 mutant F180L was generated by site directed mutagenesis. All of the proteins were expressed in E. coli Rosetta cells. To induce expression of target proteins, isopropyl β-D-1-thiogalactopyranoside was added to a final concentration of 0.2 mM when OD600 reached 0.6, and the culture was grown at 15 °C (Sirt3 at 25 °C) for 16–18 hr. Cells were harvested and resuspended in lysis buffer A (50 mM Tris–HCl, pH 7.5, 500 mM NaCl, 1 mM PMSF, and Roche EDTA free protease inhibitors, for Sirt1, Sirt2, and Sirt6) or buffer B (50 mM Tris–HCl, pH 7.5, 150 mM NaCl, 1 mM PMSF, and Roche EDTA free protease inhibitors, for Sirt3 and Sirt5). Following sonication and centrifugation, the supernatant was loaded onto a nickel column pre-equilibrated with lysis buffer. […]
# (§2) The enzymatic activities of human sirtuins were measured by detecting the removal of the crotonyl group from peptides ([Du et al., 2011]). […] Samples were then analyzed by LC-MS with a Vydac 218TP C18 column (4.6 mm×250 mm, 5 μm; Grace Davison, Columbia, MD). […]
# [2] = system: Sirt1; assay: Hydrolysis of H3K4Cr by Sirt1, LC-MS; type: biochemical, human; settings: Sirt1 5 μM, 500 μM peptide, 1 mM NAD, pH 7.5, 37 °C, 2 hr
# Method: as §1, §2
# [3] = system: Sirt5; assay: Hydrolysis of H3K4Cr by Sirt5, LC-MS; type: biochemical, human; settings: Sirt5 5 μM, 500 μM peptide, 1 mM NAD, pH 7.5, 37 °C, 2 hr
# Method: as §1, §2
# [4] = target: T1, Sirt2 (Homo sapiens, UniProt Q8IXJ6); assay: Hydrolysis of H3K4Cr by Sirt2, LC-MS; type: biochemical; settings: Sirt2 5 μM, 500 μM peptide, 1 mM NAD, pH 7.5, 37 °C, 2 hr
# T1 construct: Plasmids of Sirt1 (193–747), Sirt2 (36–356), Sirt5 (34–302), and Sirt6 (1–314) for Escherichia coli expression; made in house; host or cells: E. coli Rosetta
# T1 sequence (Q8IXJ6 36-356): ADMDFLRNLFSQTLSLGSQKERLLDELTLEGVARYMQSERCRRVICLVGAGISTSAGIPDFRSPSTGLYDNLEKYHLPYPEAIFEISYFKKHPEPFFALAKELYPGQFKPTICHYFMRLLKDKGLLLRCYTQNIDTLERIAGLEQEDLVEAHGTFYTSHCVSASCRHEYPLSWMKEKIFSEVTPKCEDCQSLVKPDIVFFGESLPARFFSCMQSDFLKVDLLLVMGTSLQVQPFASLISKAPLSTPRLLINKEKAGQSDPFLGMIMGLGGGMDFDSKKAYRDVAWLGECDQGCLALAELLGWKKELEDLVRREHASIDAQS
# Method: as §1, §2
# [5] = target: T1, Sirt2; assay: Isothermal titration calorimetry, Sirt2; type: binding; settings: ITC, 25 °C; Sirt2, compared with Sirt3
# [6] = system: Sirt3 H248Y; assay: Hydrolysis of crotonylated peptide by mutated Sirt3 H248Y, LC-MS; type: biochemical, human; settings: H248Y mutant, 500 μM peptide, 1 mM NAD, pH 7.5, 37 °C, 2 hr
# Method: as §1, §2
# [7] = system: Sirt1; assay: Isothermal titration calorimetry, Sirt1; type: binding, human; settings: ITC, 25 °C; Sirt1, compared with Sirt3
# Method: as §1, with “buffer. The column was washed with 5 column volumes of wash buffer (lysis buffer with 30 mM imidazole) and then the target proteins were eluted with elution buffer (lysis buffer with 250 mM imidazole). After purification, Sirt2 was digested by UPL1 at 4 °C overnight and purified by a Highload 26/60 Superdex75 gel filtration column (GE Healthcare Life Sciences, United Kingdom).” for “buffer.”
substance,measurement,setting,value
H3K4Cr: lysine-4 crotonylated histone H3 peptide (1–15); (1–10) for crystallography; two C-terminal tryptophans added for kinetics,hydrolysis (decrotonylation) by Sirt6,[1],little decrotonylation activities; also recorded: little hydrolysis of the crotonyl peptide was observed
same,hydrolysis (decrotonylation) by Sirt1,[2],significant decrotonylation activities; also recorded: catalyzed the hydrolysis of the H3K4Cr peptide
same,hydrolysis (decrotonylation) by Sirt5,[3],little decrotonylation activities; also recorded: little hydrolysis of the crotonyl peptide was observed
same,hydrolysis (decrotonylation) by Sirt2,[4],significant decrotonylation activities; also recorded: catalyzed the hydrolysis of the H3K4Cr peptide
same,binding affinity in words,[5],lower affinities
same,decrotonylation activity of Sirt3 H248Y,[6],"completely abolished its decrotonylation activity; also recorded: or with the mutated Sirt3, H248Y"
same,binding affinity in words,[7],lower affinities

# Entries after “also recorded” stand apart in the source; their conditions may differ.
